Experiment: Hydrolysis of ADMG compared to ADSa in solution or under basic conditions (NaHCO3 / Na2CO3)
Format: physicochemical
Details: 16 hours
Method: Hydrolysis of ADMG compared to ADSa in solution or under basic conditions: To a 10 mL brown bottle was added the ADMG 2HCl (5 mg) or ADSa 2HCl (5 mg) and methanol (1 mL), followed by adding saturated aq NaHCO3 or Na2CO3 (0.5 mL) at rt. The mixture was stirred at room temperature or 50° C. The reaction was monitored by HPLC and LCMS after 16 hours. The results are shown in the below table, where A indicates starting diester (ADSa or ADMG), B indicates the hydrolyzed monoester, and C indicates free astaxanthin. “Byproduct” indicates a material that was formed other than the diester, monoester, or free astaxanthin.

[1] = methanol + saturated aq NaHCO3, 50° C.
[2] = methanol + saturated aq NaHCO3, rt

With “Astaxanthin Sarcosine Diester [ADSa, reference compound]” as the substance, how does the “B (hydrolyzed monoester)” value [1] read?
Its value is 2% B.

And the “C (free astaxanthin)” value [1]?
The value was 90% C.

What about the “A (starting diester)” value [2] of the same substance?
Its value is 7% A.

And the “B (hydrolyzed monoester)” value [2]?
The value was 32% B.

What about the “C (free astaxanthin)” value [2] of the same substance?
The value was 51% C.
